{"sequences": {"note": "Amino acid sequences for entries named in this document (tags omitted).", "UniProt P86926, whole entry": "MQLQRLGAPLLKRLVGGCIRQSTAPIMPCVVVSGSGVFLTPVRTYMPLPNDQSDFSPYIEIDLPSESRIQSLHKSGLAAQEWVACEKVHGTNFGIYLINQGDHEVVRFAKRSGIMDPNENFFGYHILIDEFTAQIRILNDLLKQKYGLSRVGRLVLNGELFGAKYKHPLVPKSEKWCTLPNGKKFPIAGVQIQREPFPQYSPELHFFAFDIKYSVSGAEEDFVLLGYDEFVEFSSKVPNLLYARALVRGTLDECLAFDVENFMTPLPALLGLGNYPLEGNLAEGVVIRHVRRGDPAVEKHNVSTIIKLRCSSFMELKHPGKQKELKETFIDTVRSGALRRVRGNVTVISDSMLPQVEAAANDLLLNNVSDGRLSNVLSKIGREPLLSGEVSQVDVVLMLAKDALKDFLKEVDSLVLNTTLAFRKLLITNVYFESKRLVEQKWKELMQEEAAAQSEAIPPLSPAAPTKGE"}, "source": "PubChem BioAssay AID1117264", "about": "(The Scripps Research Institute Molecular Screening Center, 2014)", "note": "The list shows a part of the results, in another mix than the full data. Some of these compounds have results that are not shown, active ones among them. Calls of active or inactive are those of the source.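 Rule for the calls: active = inhibition above the mean inhibition across all screened compounds plus 3 SD (cut at about 11% in these data); inactive = the rest.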", "data": [{"biological_target": "RNA-editing ligase 1, mitochondrial (Trypanosoma brucei brucei) (UniProt P86926)", "assay": "T. brucei editing ligase REL1 blockade – biochemical, FRET fluorescence, primary screen (AID 1117264);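 note: 0% = plate median of test wells and 100% = NSC42067 control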", "conditions": "TbREL1 RNA ligation, at 9.66 µM, stronger effect = higher value", "values": [{"smiles": "Cc1ccc(C(=O)NCC2(N3CCCCC3)CCCCC2)cc1", "inhibition": "inactive: 0.7%"}, {"smiles": "O=C(NCC1(N2CCCCC2)CCCCC1)c1cccc(Br)c1", "inhibition": "inactive: -0.15%"}, {"smiles": "C=CCN1CCN(CCOC(=O)C(O)(c2ccccc2)c2ccccc2)CC1", "inhibition": "inactive: -0.74%"}, {"smiles": "CN(C)c1cccc(C(=O)NCC2(N(C)C)CCCCC2)c1", "inhibition": "inactive: -3.97%"}, {"smiles": "O=C(OCCN1CCCC1)C(O)(c1ccccc1)c1ccccc1", "inhibition": "inactive: -0.84%"}, {"smiles": "O=C(OC1CN2CCC1CC2)C(CO)(c1ccccc1)c1ccccc1", "note": "(stereo unspecified)", "inhibition": "inactive: -0.16%"}]}]}
